Laboratory results: patent US20250382289A1, “PYRAZOLOPYRIDINE DERIVATIVE AND APPLICATION THEREOF IN MEDICINE” (XIZANG HAISCO PHARMACEUTICAL CO., LTD., priority 2022, published 2025)

System: MDA-MB-436 cells
Test: Clone formation test of MDA-MB-436 cells
Details: read-out: IC50 (nM), inhibitory activity on MDA-MB-436 cell clones; 14 days, crystal violet, OD 570 nm; tested form: trifluoroacetate
Description: In this experiment, MDA-MB-436 cells were treated by adding a test compound to detect the ability of cell clone formation. At the beginning of the experiment, MDA-MB-436 cells (ATCC, HTB-130) were added to a 96-well plate (Corning, 3599), with 500 cells per well, and they were subjected to adherent culture overnight. The next day, the compound diluted in a gradient was added, and culture was continued in a […] incubator at 37° C. On the 7th day, the old culture medium was discarded, and the test compound diluted in a gradient was added again. At the 14th day, the 96-well plate was taken out, the culture liquid was discarded, and cell clones were detected by Crystal violet Assay kit. PHERAstar FSX microplate reader (BMG LABTECH) was used for detection of OD at 570 nm. The IC50 value was calculated using GraphPad Prism software.

IC50: < 200 nM
Compound: COc1ncnc(C2CC2)c1-c1ncc2cnn(Cc3ccc(-n4nc(C(F)(F)F)cc4C)cc3)c2c1F
